# Values quoted from earlier work, collected in US20100105761A1, “TREATMENT OF PAIN THROUGH EXPRESSION OF OPIOID RECEPTORS” (priority 2006, published 2010).
# Assays:
# μ receptor = conditions: antinociception tests on mice
smiles,measurement,setting,value
CN1CC[C@]23c4c5ccc(O)c4O[C@H]2[C@@H](O)C=C[C@H]3[C@H]1C5 [morphine],"cross tolerance with morphine-6b-glucuronide, heroin or 6-acetyl morphine",μ receptor,does not exhibit cross tolerance
same,response to morphine in MOR-1 knockout mouse,MOR-1,does not respond
